Consider 26 compounds from PubChem BioAssay AID463195 (Sanford-Burnham Center for Chemical Genomics, 2010).

This is a selection; strong and weak results do not stand in their true shares. Calls of active or inactive are those of the source.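 The calls were made as follows: active = inhibition of 40% or more at the single tested concentration; inactive = the rest.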

This assay is described as follows: wild-type TIM10 yeast growth inhibition – luminescence, uHTS, counter-screen for tim10-1 yeast inhibitor project, primary screen (AID 463195).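 Also: wild-type TIM10 isogenic control strain grown at permissive 25 °C; 0% = DMSO yeast wells and 100% = minimal medium wells without yeast.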 The settings on record: S. cerevisiae TIM10 strain growth, BacTiter-Glo luminescence, 24 h; at 10 µM; active compounds read high.
For `CCN(CC)CCCOC(=O)C(O)(c1ccccc1)c1ccccc1`, the inhibition was inactive: -2.58%.

As to `CC(C)(C)c1ccc(OP(C)(=O)Nc2ccc(SC(F)(F)F)cc2)cc1` (stereo unspecified), the inhibition was inactive: -9.16%.

As to `Cc1cccc(C)c1OP(C)(N)=O` (stereo unspecified), the inhibition was inactive: -0.189%.

For `O=[N+]([O-])c1cc([N+](=O)[O-])c(Nc2cccnc2)c([N+](=O)[O-])c1`, the inhibition is inactive: 38.2%.

As to `COc1ccccc1OP(C)(=O)Nc1cc(Cl)ccc1C` (stereo unspecified), the inhibition was inactive: -1.73%.

As to `COc1ccc(OP(C)(=O)Nc2cccc(F)c2)cc1` (stereo unspecified), the inhibition is inactive: -9.3%.

Turning to `Cc1cc(C)cc(OP(C)(N)=O)c1` (stereo unspecified), the inhibition was inactive: 1.23%.

For `CCOC(=O)c1ccc(NP(C)(=O)Oc2ccccc2)cc1` (stereo unspecified), the inhibition was inactive: -3.24%.

In the case of `COc1ccccc1OP(C)(=O)Nc1ccc(C)cc1` (stereo unspecified), the inhibition is inactive: 4.64%.

Take `Cc1ccc(NP(C)(=O)Oc2ccccc2)c(C)c1` (stereo unspecified): the inhibition was inactive: 3.77%.

On to `COc1ccccc1OP(C)(=O)Nc1ccccc1` (stereo unspecified), for which the inhibition was inactive: -11.5%.

Consider `CP(=O)(Nc1ccccc1Br)Oc1ccccc1` (stereo unspecified), for which the inhibition was inactive: -5.41%.

As to `CP(=S)(Nn1cnnc1)Oc1ccccc1` (stereo unspecified), the inhibition is inactive: 1.13%.

On to `CCc1ccc(OP(C)(=O)N2CCN(c3ccc([N+](=O)[O-])cc3)CC2)cc1` (stereo unspecified), for which the inhibition is inactive: 32.8%.

`CP(=O)(NC(=O)Nc1ccccc1)Oc1ccccc1` (stereo unspecified): the inhibition is inactive: -21.3%.

Consider `Cc1cc(C)cc(OP(C)(=O)Nc2ccc(SC(F)(F)F)cc2)c1` (stereo unspecified), for which the inhibition is inactive: 4.95%.

As to `CP(=O)(Nc1ccc(SC(F)(F)F)cc1)Oc1ccc(Cl)cc1` (stereo unspecified), the inhibition was inactive: 22%.

On to `Cc1cccc(C)c1OP(C)(=O)Nc1ccc(SC(F)(F)F)cc1` (stereo unspecified), for which the inhibition is inactive: 14.5%.

On to `CP(=O)(Oc1ccccc1)OC(c1ccccc1)C(F)(F)F` (stereo unspecified), for which the inhibition is inactive: 2.05%.

Consider `CP(=O)(Nc1ccccn1)Oc1ccc(Cl)cc1` (stereo unspecified), for which the inhibition was inactive: -12.1%.

On to `CCOP(C)(=S)SCC(=O)NC(C)C(=O)O` (stereo unspecified), for which the inhibition was inactive: -1.67%.

As for `O=[N+]([O-])c1cc([N+](=O)[O-])c(O)c([N+](=O)[O-])c1.c1ccc(Oc2ccncc2)cc1`, the inhibition is inactive: 8.56%.

Turning to `CCOC(=O)c1ccc(NP(C)(=O)Oc2ccc(OC)cc2)cc1` (stereo unspecified), the inhibition is inactive: -6.68%.

Regarding `O=[N+]([O-])c1cc([N+](=O)[O-])c(-n2nnc3ccccc32)c([N+](=O)[O-])c1`, the inhibition is inactive: 14.1%.

With `Cc1nc2ccc3ccccc3c2s1.O=[N+]([O-])c1cc([N+](=O)[O-])c(O)c([N+](=O)[O-])c1`, the inhibition was inactive: -8.49%.

Consider `O=[N+]([O-])c1cc([N+](=O)[O-])c(-c2cnn(-c3ccccc3)c2)c([N+](=O)[O-])c1`, for which the inhibition is active: 74.1%.
